Reference: publication PMC2630883 (Biochemistry, 2008)

Protein sequences, listed by entry. Tags and fused reporters are not part of them. Residues count along the entry.
UniProt P19493, 403-902 P403Q/C447S/C550S/S674C: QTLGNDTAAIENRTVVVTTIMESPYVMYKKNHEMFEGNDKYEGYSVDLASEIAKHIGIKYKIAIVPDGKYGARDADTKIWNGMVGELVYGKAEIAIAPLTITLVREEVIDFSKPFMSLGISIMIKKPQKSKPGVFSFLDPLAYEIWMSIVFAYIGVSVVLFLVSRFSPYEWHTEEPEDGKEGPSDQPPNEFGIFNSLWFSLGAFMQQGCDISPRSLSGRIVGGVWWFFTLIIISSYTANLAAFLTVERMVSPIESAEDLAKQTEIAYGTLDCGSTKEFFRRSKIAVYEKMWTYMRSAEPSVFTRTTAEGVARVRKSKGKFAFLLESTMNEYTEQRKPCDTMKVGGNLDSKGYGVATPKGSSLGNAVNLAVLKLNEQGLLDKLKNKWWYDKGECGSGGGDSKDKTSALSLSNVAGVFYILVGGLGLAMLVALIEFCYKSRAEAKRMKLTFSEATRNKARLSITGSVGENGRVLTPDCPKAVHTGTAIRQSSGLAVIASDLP

Target: GluR4 AMPA receptor (histag-ΔN*-AMPA-S653C) (Rattus norvegicus, UniProt P19493, C447S/C550S/P403Q/S674C)
Test: biochemical

Cc1onc(O)c1CC(N)C(=O)O (stereo not drawn) [AMPA, α-amino-5-methyl-3-hydroxy-4-isoxazolepropionic acid]
Kd: 0.088 ± 0.01 µM
